Measurements reported in ChEMBL document CHEMBL6153175, “Discovery of Isobenzofuran-1(3H)-one Derivatives as Selective TREK-1 Inhibitors with In Vitro and In Vivo Neuroprotective Effects” (J Med Chem, 2025).
Activity calls are given as the source filed them.

Protein sequences, listed by entry. Tags and fused reporters are not part of them. Lines headed by an entry give the natural chain unless they say otherwise; changes in a name come on top.
UniProt P15387: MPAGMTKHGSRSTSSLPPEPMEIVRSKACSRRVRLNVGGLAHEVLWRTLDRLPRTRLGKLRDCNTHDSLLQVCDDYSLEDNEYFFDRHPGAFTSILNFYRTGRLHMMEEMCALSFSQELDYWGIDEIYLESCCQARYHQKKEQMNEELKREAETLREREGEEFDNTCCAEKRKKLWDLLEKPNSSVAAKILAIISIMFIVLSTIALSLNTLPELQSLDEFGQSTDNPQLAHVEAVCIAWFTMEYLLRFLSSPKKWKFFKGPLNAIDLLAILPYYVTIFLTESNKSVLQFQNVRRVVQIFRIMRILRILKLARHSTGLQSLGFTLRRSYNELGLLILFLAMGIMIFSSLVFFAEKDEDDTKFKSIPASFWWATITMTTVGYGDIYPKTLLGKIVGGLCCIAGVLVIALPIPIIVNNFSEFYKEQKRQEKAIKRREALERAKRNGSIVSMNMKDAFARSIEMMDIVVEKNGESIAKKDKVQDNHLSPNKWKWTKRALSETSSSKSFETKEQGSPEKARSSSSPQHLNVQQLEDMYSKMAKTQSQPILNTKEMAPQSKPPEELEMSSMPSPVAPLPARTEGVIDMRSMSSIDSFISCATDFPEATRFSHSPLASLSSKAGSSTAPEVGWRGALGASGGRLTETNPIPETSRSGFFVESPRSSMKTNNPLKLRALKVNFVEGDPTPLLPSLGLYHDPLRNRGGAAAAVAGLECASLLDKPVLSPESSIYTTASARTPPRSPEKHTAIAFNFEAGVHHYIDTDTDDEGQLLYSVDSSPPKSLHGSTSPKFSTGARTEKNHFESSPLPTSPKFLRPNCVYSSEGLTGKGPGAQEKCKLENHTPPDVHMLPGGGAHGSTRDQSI
UniProt Q63881: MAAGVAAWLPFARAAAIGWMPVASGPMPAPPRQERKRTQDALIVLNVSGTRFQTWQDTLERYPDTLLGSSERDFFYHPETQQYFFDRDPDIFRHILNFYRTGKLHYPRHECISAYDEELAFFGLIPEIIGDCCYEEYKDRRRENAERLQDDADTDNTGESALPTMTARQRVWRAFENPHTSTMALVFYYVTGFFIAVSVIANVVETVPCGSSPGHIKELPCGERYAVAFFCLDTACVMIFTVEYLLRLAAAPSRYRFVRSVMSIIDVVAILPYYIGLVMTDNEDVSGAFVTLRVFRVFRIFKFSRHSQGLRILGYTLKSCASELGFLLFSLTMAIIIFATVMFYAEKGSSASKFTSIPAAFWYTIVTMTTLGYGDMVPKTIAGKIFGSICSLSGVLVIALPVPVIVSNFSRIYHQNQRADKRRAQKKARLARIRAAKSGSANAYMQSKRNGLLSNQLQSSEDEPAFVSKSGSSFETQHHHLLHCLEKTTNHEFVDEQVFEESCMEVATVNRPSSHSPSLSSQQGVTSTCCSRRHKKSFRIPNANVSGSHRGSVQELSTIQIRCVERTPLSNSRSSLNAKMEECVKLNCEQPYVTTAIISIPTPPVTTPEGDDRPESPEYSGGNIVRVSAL
UniProt P35499, whole entry, looked up: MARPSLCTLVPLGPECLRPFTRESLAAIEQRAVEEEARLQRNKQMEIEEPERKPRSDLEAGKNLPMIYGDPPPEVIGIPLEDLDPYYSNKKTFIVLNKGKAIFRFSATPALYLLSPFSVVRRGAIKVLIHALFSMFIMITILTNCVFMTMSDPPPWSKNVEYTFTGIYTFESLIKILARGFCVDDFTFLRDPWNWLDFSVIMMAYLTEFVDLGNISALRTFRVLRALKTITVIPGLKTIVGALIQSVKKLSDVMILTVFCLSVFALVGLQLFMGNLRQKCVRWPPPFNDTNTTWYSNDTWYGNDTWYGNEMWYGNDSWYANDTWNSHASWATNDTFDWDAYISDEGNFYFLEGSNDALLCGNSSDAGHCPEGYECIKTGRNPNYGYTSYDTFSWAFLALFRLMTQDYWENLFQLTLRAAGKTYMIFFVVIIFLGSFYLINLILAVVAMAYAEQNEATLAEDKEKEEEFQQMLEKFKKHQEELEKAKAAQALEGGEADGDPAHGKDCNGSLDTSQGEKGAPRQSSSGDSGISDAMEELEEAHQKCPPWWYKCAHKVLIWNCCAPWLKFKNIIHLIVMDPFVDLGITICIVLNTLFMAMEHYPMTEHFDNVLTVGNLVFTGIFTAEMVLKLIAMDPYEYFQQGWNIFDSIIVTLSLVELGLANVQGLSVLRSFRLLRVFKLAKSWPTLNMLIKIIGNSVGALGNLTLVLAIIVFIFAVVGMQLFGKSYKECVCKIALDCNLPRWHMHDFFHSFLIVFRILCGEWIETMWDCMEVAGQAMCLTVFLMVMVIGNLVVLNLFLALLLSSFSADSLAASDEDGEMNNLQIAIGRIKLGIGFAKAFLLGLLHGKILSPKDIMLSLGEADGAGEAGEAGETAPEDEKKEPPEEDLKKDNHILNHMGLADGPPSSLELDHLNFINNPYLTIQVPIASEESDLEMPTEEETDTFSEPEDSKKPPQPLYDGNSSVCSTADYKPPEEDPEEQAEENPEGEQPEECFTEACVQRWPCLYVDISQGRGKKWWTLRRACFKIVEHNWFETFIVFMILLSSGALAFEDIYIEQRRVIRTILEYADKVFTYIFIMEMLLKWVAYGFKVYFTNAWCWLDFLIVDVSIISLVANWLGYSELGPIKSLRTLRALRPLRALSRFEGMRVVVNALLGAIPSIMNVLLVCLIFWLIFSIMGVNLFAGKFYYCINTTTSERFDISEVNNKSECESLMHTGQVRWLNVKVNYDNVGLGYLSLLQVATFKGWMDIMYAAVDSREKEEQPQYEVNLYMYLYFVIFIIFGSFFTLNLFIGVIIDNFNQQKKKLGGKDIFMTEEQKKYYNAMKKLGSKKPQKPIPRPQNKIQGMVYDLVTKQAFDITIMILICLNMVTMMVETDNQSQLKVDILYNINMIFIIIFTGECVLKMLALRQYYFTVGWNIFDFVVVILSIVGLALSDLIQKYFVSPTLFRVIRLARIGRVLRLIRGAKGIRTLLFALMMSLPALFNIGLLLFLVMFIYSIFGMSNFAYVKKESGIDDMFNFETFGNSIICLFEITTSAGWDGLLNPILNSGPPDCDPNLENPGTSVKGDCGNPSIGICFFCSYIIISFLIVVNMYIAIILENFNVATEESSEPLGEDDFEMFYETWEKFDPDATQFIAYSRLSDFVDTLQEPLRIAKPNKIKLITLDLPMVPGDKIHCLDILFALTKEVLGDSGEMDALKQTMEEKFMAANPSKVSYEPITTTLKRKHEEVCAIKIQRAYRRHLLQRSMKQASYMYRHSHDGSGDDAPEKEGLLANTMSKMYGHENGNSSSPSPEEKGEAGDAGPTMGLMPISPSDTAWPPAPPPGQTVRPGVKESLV
UniProt Q15858, whole entry, looked up: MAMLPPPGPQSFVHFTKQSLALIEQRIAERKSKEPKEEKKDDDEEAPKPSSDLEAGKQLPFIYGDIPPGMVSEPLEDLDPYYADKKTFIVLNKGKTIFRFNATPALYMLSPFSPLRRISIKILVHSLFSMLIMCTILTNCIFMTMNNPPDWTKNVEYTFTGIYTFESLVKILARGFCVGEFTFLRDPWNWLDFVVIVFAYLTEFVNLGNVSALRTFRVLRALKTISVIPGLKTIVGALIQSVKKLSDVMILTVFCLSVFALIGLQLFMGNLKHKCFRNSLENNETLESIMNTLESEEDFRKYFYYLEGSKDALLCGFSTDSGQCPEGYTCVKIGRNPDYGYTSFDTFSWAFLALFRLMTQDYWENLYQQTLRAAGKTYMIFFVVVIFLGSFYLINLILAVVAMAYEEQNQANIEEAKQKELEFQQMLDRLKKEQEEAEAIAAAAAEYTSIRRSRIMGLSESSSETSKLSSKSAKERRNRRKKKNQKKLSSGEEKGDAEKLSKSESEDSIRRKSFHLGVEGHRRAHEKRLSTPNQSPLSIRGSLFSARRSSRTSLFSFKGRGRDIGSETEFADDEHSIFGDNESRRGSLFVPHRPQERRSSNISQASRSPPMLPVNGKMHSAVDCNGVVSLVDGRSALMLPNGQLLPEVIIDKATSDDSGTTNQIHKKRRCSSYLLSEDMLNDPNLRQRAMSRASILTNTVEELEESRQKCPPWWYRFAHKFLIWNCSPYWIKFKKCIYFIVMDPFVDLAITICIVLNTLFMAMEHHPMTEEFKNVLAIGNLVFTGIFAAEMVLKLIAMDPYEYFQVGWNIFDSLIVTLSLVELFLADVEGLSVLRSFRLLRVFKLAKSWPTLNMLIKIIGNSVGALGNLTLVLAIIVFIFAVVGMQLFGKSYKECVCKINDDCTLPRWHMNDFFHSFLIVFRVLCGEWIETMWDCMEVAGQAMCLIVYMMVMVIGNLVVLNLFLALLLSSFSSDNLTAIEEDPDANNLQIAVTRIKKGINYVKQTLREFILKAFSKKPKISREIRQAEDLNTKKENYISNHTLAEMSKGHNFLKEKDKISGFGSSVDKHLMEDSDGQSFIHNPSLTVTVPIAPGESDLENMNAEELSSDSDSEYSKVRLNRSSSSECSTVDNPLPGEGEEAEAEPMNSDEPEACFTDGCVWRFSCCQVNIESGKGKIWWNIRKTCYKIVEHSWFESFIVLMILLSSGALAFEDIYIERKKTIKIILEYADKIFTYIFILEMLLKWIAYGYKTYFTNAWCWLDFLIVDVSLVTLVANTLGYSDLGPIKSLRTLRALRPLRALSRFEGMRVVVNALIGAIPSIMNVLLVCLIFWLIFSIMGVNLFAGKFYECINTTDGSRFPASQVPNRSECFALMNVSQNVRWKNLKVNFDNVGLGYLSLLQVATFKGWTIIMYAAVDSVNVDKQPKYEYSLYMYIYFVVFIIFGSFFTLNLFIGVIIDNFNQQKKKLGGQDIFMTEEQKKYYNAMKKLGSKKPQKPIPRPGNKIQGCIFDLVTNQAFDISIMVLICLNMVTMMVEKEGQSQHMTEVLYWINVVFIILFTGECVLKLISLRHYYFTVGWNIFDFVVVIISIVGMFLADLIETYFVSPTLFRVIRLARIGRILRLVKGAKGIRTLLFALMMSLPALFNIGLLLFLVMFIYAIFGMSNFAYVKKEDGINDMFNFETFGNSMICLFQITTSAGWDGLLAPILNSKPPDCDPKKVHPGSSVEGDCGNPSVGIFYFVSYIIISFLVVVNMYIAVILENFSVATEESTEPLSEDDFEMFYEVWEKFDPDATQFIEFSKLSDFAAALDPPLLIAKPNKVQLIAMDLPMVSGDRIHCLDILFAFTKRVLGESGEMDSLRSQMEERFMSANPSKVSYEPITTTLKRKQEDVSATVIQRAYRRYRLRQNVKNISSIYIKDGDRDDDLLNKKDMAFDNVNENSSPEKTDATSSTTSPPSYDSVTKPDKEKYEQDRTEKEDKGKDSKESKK
UniProt Q9HCX4: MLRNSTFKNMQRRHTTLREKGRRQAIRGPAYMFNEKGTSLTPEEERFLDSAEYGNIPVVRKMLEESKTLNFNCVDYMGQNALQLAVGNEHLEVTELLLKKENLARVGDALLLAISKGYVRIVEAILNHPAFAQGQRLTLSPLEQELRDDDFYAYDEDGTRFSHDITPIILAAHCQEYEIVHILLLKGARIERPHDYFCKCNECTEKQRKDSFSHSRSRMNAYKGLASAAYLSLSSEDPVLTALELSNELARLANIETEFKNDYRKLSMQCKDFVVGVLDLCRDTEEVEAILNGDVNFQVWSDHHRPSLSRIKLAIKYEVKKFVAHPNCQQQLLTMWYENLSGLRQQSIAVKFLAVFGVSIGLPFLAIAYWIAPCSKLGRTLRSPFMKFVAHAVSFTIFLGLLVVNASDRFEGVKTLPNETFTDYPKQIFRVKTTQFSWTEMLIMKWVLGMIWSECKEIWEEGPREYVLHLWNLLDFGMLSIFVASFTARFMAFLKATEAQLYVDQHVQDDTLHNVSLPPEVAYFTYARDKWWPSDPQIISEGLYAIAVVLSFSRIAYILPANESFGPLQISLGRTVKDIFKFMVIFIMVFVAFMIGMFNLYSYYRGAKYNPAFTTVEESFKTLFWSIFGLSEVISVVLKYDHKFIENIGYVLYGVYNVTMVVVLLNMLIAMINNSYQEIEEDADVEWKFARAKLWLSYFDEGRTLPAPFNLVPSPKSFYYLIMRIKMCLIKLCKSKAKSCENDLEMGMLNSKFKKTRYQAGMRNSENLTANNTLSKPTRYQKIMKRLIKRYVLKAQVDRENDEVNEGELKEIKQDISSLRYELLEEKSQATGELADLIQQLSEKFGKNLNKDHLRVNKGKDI
UniProt Q96LB2: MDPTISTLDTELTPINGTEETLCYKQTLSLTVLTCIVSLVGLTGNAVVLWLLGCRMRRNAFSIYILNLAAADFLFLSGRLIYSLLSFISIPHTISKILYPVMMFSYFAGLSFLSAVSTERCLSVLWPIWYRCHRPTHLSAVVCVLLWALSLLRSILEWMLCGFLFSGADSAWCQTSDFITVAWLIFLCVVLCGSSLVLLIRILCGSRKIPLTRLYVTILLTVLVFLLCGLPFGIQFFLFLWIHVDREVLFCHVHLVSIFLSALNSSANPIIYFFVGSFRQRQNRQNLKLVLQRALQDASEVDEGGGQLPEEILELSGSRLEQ

Columns and labels:
[1] = target: Potassium voltage-gated channel subfamily A member 2 (Homo sapiens) (UniProt P16389); assay: Inhibition of human Kv1.2 channel expressed in HEK293 cells at 30 uM; format: cell-based
[2] = target: Potassium voltage-gated channel subfamily A member 2 (Homo sapiens) (UniProt P16389); assay: Activation of human Kv1.2 channel expressed in HEK293 cells at 30 uM; format: cell-based
[3] = target: Potassium voltage-gated channel subfamily A member 3 (Homo sapiens) (UniProt P22001); assay: Inhibition of human Kv1.3 channel expressed in HEK293 cells at 30 uM; format: cell-based
[4] = target: Potassium voltage-gated channel subfamily A member 3 (Homo sapiens) (UniProt P22001); assay: Activation of human Kv1.3 channel expressed in HEK293 cells at 30 uM; format: cell-based
[5] = target: Potassium voltage-gated channel subfamily A member 5 (Homo sapiens) (UniProt P22460); assay: Inhibition of human Kv1.5 channel expressed in HEK293 cells at 30 uM; format: cell-based
[6] = target: Potassium voltage-gated channel subfamily A member 5 (Homo sapiens) (UniProt P22460); assay: Activation of human Kv1.5 channel expressed in HEK293 cells at 30 uM; format: cell-based
[7] = target: Potassium voltage-gated channel subfamily B member 1 (Rattus norvegicus) (UniProt P15387); assay: Inhibition of rat Kv2.1 channel expressed in HEK293 cells at 30 uM; format: cell-based
[8] = target: Potassium voltage-gated channel subfamily B member 1 (Rattus norvegicus) (UniProt P15387); assay: Activation of rat Kv2.1 channel expressed in HEK293 cells at 30 uM; format: cell-based
[9] = target: Voltage-gated potassium channel KCNC1 (Homo sapiens) (UniProt P48547); assay: Inhibition of human Kv3.1 channel expressed in HEK293 cells at 30 uM; format: cell-based
[10] = target: Voltage-gated potassium channel KCNC1 (Homo sapiens) (UniProt P48547); assay: Activation of human Kv3.1 channel expressed in HEK293 cells at 30 uM; format: cell-based
[11] = target: A-type voltage-gated potassium channel KCND2 (Rattus norvegicus) (UniProt Q63881); assay: Inhibition of rat Kv4.2 channel expressed in HEK293 cells at 30 uM; format: cell-based
[12] = target: A-type voltage-gated potassium channel KCND2 (Rattus norvegicus) (UniProt Q63881); assay: Activation of rat Kv4.2 channel expressed in HEK293 cells at 30 uM; format: cell-based
[13] = target: Sodium channel protein type 1 subunit alpha (Homo sapiens) (UniProt P35498); assay: Inhibition of human Nav1.1 channel expressed in HEK293T cell membrane at 30 uM; format: cell membranes
[14] = target: Sodium channel protein type 1 subunit alpha (Homo sapiens) (UniProt P35498); assay: Activation of human Nav1.1 channel expressed in HEK293T cell membrane at 30 uM; format: cell membranes
[15] = target: Sodium channel protein type 2 subunit alpha (Homo sapiens) (UniProt Q99250); assay: Inhibition of human Nav1.2 channel expressed in HEK293T cell membrane at 30 uM; format: cell membranes
[16] = target: Sodium channel protein type 2 subunit alpha (Homo sapiens) (UniProt Q99250); assay: Activation of human Nav1.2 channel expressed in HEK293T cell membrane at 30 uM; format: cell membranes
[17] = target: Sodium channel protein type 4 subunit alpha (Homo sapiens) (UniProt P35499); assay: Inhibition of human Nav1.4 channel expressed in HEK293T cell membrane at 30 uM; format: cell membranes
[18] = target: Sodium channel protein type 4 subunit alpha (Homo sapiens) (UniProt P35499); assay: Activation of human Nav1.4 channel expressed in HEK293T cell membrane at 30 uM; format: cell membranes
[19] = target: Sodium channel protein type 8 subunit alpha (Homo sapiens) (UniProt Q9UQD0); assay: Inhibition of human Nav1.6 channel expressed in HEK293T cell membrane at 30 uM; format: cell membranes
[20] = target: Sodium channel protein type 8 subunit alpha (Homo sapiens) (UniProt Q9UQD0); assay: Activation of human Nav1.6 channel expressed in HEK293T cell membrane at 30 uM; format: cell membranes
[21] = target: Sodium channel protein type 9 subunit alpha (Homo sapiens) (UniProt Q15858); assay: Inhibition of human Nav1.7 channel expressed in HEK293T cell membrane at 30 uM; format: cell membranes
[22] = target: Sodium channel protein type 9 subunit alpha (Homo sapiens) (UniProt Q15858); assay: Activation of human Nav1.7 channel expressed in HEK293T cell membrane at 30 uM; format: cell membranes
[23] = target: Sodium channel protein type 10 subunit alpha (Homo sapiens) (UniProt Q9Y5Y9); assay: Inhibition of human Nav1.8 channel expressed in HEK293T cell membrane at 30 uM; format: cell membranes
[24] = target: Sodium channel protein type 10 subunit alpha (Homo sapiens) (UniProt Q9Y5Y9); assay: Activation of human Nav1.8 channel expressed in HEK293T cell membrane at 30 uM; format: cell membranes
[25] = target: Transient receptor potential cation channel subfamily V member 2 (Mus musculus) (UniProt Q9WTR1); assay: Inhibition of mouse TRPV2 expressed in HEK293T cell membrane at 30 uM in presence of 2-APB; format: cell membranes
[26] = target: Transient receptor potential cation channel subfamily V member 2 (Mus musculus) (UniProt Q9WTR1); assay: Activation of mouse TRPV2 expressed in HEK293T cell membrane at 30 uM in presence of 2-APB; format: cell membranes
[27] = target: Transient receptor potential cation channel subfamily V member 4 (Homo sapiens) (UniProt Q9HBA0); assay: Inhibition of human TRPV4 expressed in HEK293T cell membrane at 30 uM in presence of GSK; format: cell membranes
[28] = target: Transient receptor potential cation channel subfamily V member 4 (Homo sapiens) (UniProt Q9HBA0); assay: Activation of human TRPV4 expressed in HEK293T cell membrane at 30 uM in presence of GSK; format: cell membranes
[29] = target: Transient receptor potential cation channel subfamily M member 8 (Homo sapiens) (UniProt Q7Z2W7); assay: Inhibition of human TRPM8 expressed in HEK293T cell membrane at 30 uM in presence of menthol; format: cell membranes
[30] = target: Transient receptor potential cation channel subfamily M member 8 (Homo sapiens) (UniProt Q7Z2W7); assay: Activation of human TRPM8 expressed in HEK293T cell membrane at 30 uM in presence of menthol; format: cell membranes
[31] = target: Short transient receptor potential channel 3 (Homo sapiens) (UniProt Q13507); assay: Inhibition of human TRPC3 expressed in HEK293T cell membrane at 30 uM in presence of OAG; format: cell membranes
[32] = target: Short transient receptor potential channel 3 (Homo sapiens) (UniProt Q13507); assay: Activation of human TRPC3 expressed in HEK293T cell membrane at 30 uM in presence of OAG; format: cell membranes
[33] = target: Short transient receptor potential channel 5 (Homo sapiens) (UniProt Q9UL62); assay: Inhibition of human TRPC5 expressed in HEK293T cell membrane at 30 uM in presence of englerin A; format: cell membranes
[34] = target: Short transient receptor potential channel 5 (Homo sapiens) (UniProt Q9UL62); assay: Activation of human TRPC5 expressed in HEK293T cell membrane at 30 uM in presence of englerin A; format: cell membranes
[35] = target: Short transient receptor potential channel 6 (Homo sapiens) (UniProt Q9Y210); assay: Inhibition of human TRPC6 expressed in HEK293T cell membrane at 30 uM in presence of OAG; format: cell membranes
[36] = target: Short transient receptor potential channel 6 (Homo sapiens) (UniProt Q9Y210); assay: Activation of human TRPC6 expressed in HEK293T cell membrane at 30 uM in presence of OAG; format: cell membranes
[37] = target: Short transient receptor potential channel 7 (Homo sapiens) (UniProt Q9HCX4); assay: Inhibition of human TRPC7 expressed in HEK293T cell membrane at 30 uM in presence of OAG; format: cell membranes
[38] = target: Short transient receptor potential channel 7 (Homo sapiens) (UniProt Q9HCX4); assay: Activation of human TRPC7 expressed in HEK293T cell membrane at 30 uM in presence of OAG; format: cell membranes
[39] = target: G-protein coupled receptor 39 (Homo sapiens) (UniProt O43194); assay: Inhibition of human GPR39 expressed in HEK293T cell membrane at 30 uM in presence of Zn; format: cell membranes
[40] = target: G-protein coupled receptor 39 (Homo sapiens) (UniProt O43194); assay: Activation of human GPR39 expressed in HEK293T cell membrane at 30 uM in presence of Zn; format: functional, cell membranes
[41] = target: Mas-related G-protein coupled receptor member X1 (Homo sapiens) (UniProt Q96LB2); assay: Inhibition of human MRGPRX1 expressed in HEK293T cell membrane at 30 uM in presence of BAM 8-12; format: cell membranes
[42] = target: Mas-related G-protein coupled receptor member X1 (Homo sapiens) (UniProt Q96LB2); assay: Activation of human MRGPRX1 expressed in HEK293T cell membrane at 30 uM in presence of BAM 8-12; format: cell membranes

Cc1ccccc1CC1OC(=O)c2cc(C3CCNCC3)ccc21 (configuration not stated)
inactive: inhibition [1] | Activity [2] | inhibition [3] | Activity [4] | inhibition [5] | Activity [6] | inhibition [7] | Activity [8] | inhibition [9] | Activity [10] | inhibition [11] | Activity [12] | inhibition [13] | Activity [14] | inhibition [15] | Activity [16] | inhibition [17] | Activity [18] | inhibition [19] | Activity [20] | inhibition [21] | Activity [22] | inhibition [23] | Activity [24] | inhibition [25] | Activity [26] | inhibition [27] | Activity [28] | inhibition [29] | Activity [30] | inhibition [31] | Activity [32] | inhibition [33] | Activity [34] | inhibition [35] | Activity [36] | inhibition [37] | Activity [38] | inhibition [39] | Activity [40] | inhibition [41] | Activity [42]
